Reference: patent US11963941B2, “Use of a fasting mimicking diet to enhance the efficacy of antiestrogens in cancer” (UNIVERSITA' DEGLI STUDI DI GENOVA, priority 2016, dated 2024)

System: ZR-75-1 cells
[1] = FMD + tamoxifen 5 μM, 24 h, FIG. 3

**Q.** Which 4E-BP1 phosphorylation state [1] does the source give for `CC/C(=C(\c1ccccc1)c1ccc(OCCN(C)C)cc1)c1ccccc1` [tamoxifen] here?
**A.** Its 4E-BP1 phosphorylation state is “marked accumulation of the unphosphorylated form”.

**Q.** And the “mTOR activity (levels of phosphorylated p70S6K and eIF4E)” value [1]?
**A.** Its value is “marked inhibition of mTOR activity”.

**Q.** And the “RAD51 expression at the protein level” value (FMD + tamoxifen 5 μM, 24 h, FIG. 6B)?
**A.** The value was “strong RAD51 downregulation”.

**Q.** What about the HER2 expression (FMD in combination with tamoxifen 5 μM, FIG. 3) of the same compound?
**A.** The HER2 expression was “marked reduction in HER2 expression”.
